These are literature values, as cited in paper PMC3401594 (International Journal of Pharmaceutics, 2009).

The chains behind the UniProt entries cited, without tags or fusion partners.
UniProt P08183, whole entry: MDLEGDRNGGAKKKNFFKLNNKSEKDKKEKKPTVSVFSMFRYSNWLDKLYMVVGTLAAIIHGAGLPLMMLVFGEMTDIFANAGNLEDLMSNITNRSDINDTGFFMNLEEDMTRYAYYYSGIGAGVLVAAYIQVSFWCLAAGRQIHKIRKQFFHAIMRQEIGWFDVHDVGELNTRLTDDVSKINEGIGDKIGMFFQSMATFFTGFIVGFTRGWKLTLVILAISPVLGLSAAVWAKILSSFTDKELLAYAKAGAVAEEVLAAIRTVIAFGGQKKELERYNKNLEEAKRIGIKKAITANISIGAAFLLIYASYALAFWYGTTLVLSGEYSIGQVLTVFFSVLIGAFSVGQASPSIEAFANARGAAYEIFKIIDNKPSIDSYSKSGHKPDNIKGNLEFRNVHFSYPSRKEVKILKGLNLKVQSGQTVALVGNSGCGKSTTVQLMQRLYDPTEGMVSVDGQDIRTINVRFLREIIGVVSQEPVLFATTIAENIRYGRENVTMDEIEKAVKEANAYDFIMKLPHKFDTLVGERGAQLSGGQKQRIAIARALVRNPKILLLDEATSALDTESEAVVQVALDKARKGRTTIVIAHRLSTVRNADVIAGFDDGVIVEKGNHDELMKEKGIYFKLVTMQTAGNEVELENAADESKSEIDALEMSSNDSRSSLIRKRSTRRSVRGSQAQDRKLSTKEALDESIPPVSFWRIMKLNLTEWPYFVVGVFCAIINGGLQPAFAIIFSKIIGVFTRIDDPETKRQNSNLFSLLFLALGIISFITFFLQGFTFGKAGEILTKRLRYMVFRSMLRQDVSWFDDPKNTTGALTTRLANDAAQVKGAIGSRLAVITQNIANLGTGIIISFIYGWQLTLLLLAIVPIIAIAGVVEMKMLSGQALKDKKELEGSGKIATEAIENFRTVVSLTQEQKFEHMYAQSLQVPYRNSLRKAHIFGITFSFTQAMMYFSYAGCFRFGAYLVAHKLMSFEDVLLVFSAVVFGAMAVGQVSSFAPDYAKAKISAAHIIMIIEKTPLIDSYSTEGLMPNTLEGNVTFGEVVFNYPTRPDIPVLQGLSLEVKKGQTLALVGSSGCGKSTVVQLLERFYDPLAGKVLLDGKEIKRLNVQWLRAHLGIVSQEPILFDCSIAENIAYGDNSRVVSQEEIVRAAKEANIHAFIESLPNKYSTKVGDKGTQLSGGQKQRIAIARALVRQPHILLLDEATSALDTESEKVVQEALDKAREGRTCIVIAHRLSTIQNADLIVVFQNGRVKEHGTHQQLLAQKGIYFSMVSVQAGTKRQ

In this series the target is recombinant human P-gp (Homo sapiens, UniProt P08183). The note with it: cited from earlier work.

Consider buprenorphine, for which the “Fold stimulation of P-gp ATPase activity” value is reported as ~ 1 fold.
